From patent US20240417406A1, “NITROGEN-CONTAINING TRICYCLIC COMPOUND AND PHARMACEUTICAL USE THEREOF” (JAPAN TOBACCO INC., priority 2021, published 2024)

Target: human PDHK2 (hPDHK2) (Homo sapiens (Human), UniProt Q15119)
Experiment: Inhibitory action of PDHK2 activity (PDH/hPDHK2 complex, residual PDH activity by NADH absorbance at 340 nm)
Settings: read-out: hPDHK2 IC50; FLAG-tagged recombinant hPDHK2 with porcine heart PDH complex; PDHK reaction 45 min at room temperature
Protocol: In the case of human PDHK2 (hPDHK2, NCBI Reference Database Accession number NM_002611.4), modified hPDHK2 cDNA wherein FLAG-Tag sequence was added to the N terminal of hPDHK2 cDNA clone (pReceiver-M01/PDK2-GeneCopoeia) as the base was prepared by polymerase chain reaction (PCR) and ligated to the NdeI/EcoRI site of pET-17b vector (Merck KGaA, Catalog Number 69663-3). The recombinant construct was transformed into Escherichia coli DH5a. The recombinant clones were identified, and plasmid DNA was isolated and subjected to the DNA sequence analysis. One clone which had the expected nucleic acid sequence was selected for expression work.
For expression of hPDHK2 activity, Escherichia coli strain BL21(DE3) cells (Merck KGaA, Catalog Number 69450-4) were transformed with the pET17b vector containing modified hPDHK2 cDNA. The Escherichia coli were grown to an optical density 0.6 ([…]) at 30° C. Protein expression was induced by the addition of 500 μmol/L isopropyl-β-thiogalactopyranoside. The Escherichia coli were cultured at 20° C. for 17 to for 18 hr and harvested by centrifugation. The harvested Escherichia coli was resuspended in a suspension buffer (20 mmol/L HEPES-NaOH, 500 mmol/L sodium chloride, 1% ethylene glycol, 0.1% Pluronic (registered trademark) F-68 (pH 8.0), cOmplete, EDTA-free (Roche) (pH 8.0)), and disrupted by a microfluidizer M-110H (MIZUHO INDUSTRIAL CO., LTD.). […]

`C[C@H]1Cn2nc(C34CCC(C(C)(C)O)(CC3)OC4)cc2-c2cnc([C@@](C)(O)C(F)(F)F)n21` was tested, and the pIC50 was 7.49.

pIC50: −log10 of the molar value.
